Results taken from US20160376333A1 (University of Washington, published 2016).

Sequences of proteins named here, by UniProt entry; tags and fusion partners are left off. A change or cut given only in a name is not applied to a line headed by its entry.
UniProt P10415: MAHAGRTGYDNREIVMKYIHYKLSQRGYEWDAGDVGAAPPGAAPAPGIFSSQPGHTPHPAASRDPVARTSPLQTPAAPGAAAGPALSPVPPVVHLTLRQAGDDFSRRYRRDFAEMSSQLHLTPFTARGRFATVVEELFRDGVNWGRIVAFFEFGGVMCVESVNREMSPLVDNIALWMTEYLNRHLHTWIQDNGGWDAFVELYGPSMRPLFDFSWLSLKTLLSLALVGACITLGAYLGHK
UniProt Q07817: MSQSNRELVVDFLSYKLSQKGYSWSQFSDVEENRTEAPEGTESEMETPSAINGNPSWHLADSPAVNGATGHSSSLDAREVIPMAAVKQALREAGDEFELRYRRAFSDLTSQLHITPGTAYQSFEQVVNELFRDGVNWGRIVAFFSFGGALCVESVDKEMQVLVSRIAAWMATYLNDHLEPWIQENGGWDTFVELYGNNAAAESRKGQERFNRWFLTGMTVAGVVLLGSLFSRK

What was measured:
Assay in all cases: yeast surface display titration (apparent KD)
[1] = molecular target: T1, human Bcl-w a.a. 1-182 with C-terminal avi-6his tag (human, UniProt Q92843 1-182)
T1 construct: range 1-182; also called BCL2L2
T1 sequence: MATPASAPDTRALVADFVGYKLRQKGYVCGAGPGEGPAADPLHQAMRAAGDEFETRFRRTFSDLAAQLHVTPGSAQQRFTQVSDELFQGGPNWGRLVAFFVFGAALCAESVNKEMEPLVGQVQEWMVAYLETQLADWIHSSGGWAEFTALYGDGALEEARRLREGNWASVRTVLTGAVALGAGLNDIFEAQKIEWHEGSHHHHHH

[2] = molecular target: human Bcl-2 a.a. 1-207 with C-terminal avi-6his tag (human, UniProt P10415 2-207)
[3] = molecular target: T2, human Bcl-XL a.a. 1-205 with C-terminal avi-6his tag (human, UniProt Q07817 2-206)
T2 construct: also called BCL2L1

B1: BbpD04.3 (designed binder)
chain: ADWKKVLDKAKDIAENRVRELKQKLEEFYKEAMKLDLTQEMRRKLMLRWIAAMLMAIGDIFNAIRQAKQEADKLKKAGLVNSQQLDELKRRLEELKEEASRKARDYGREFQLKLEY
Kd [1]: 34 nM
Kd [2]: 20 nM
Kd [3]: 34 nM
